pKi: −log10 of the molar value.
Target: T1, Nischarin (Bos mutus, UniProt L8IEU8)
T1 sequence (L8IEU8 whole entry): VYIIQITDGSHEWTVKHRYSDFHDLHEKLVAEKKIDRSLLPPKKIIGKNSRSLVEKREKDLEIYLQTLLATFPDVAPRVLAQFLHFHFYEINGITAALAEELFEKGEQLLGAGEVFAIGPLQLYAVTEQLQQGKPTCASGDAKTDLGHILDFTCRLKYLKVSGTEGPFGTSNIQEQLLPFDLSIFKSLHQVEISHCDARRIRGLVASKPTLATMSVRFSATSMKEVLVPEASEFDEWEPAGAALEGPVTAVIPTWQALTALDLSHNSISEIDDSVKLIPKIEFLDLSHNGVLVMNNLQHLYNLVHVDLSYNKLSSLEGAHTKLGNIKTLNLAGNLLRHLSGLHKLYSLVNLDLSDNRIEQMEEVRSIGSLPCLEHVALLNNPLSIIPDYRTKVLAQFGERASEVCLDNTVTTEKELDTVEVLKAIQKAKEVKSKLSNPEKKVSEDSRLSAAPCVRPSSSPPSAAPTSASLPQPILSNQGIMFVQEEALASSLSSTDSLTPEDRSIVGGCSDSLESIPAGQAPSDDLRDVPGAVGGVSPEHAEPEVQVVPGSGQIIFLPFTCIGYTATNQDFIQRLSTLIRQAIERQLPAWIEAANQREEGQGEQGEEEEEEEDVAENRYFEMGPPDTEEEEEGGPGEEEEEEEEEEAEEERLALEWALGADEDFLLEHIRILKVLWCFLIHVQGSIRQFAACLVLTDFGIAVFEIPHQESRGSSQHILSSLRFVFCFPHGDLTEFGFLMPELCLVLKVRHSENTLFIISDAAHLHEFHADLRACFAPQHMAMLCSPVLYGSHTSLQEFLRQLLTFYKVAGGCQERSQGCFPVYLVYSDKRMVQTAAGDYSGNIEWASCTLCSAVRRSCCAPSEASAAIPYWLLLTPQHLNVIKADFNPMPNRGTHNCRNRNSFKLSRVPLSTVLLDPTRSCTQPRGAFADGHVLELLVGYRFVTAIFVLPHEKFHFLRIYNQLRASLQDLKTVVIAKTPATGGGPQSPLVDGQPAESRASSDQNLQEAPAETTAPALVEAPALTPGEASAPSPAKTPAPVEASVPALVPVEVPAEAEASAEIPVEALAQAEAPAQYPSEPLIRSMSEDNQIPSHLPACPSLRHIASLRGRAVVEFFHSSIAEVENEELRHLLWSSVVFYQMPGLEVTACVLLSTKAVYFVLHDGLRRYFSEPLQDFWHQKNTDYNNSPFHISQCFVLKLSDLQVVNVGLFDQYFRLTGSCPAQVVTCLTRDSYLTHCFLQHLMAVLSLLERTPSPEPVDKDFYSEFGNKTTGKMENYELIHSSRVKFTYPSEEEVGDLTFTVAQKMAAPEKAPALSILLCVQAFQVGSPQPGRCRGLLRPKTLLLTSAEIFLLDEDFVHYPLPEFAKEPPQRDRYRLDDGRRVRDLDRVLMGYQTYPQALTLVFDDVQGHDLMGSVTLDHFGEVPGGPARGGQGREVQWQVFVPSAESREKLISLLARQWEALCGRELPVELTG

For `Clc1cccc(Cl)c1N=C1NCCN1` [2-(2,6-dichloroanilino)-2-imidazoline], the pKi was 7.50.

From BindingDB's records for PubMed 11082457 (Centre De Recherches De Croissy, 2000)
